Experimental data published in paper PMC4832822, “Investigating the Influence of (Deoxy)fluorination on the Lipophilicity of Non‐UV‐Active Fluorinated Alkanols and Carbohydrates by a New log P Determination Method” (Angewandte Chemie (International Ed. in English), 2015).
Where “and” joins values, the source holds several entries; their conditions need not be identical. Identical values can stand only once. Like-named read-outs stand apart in the source and are kept apart here.

Key:
[1] = cited from earlier work
[2] = milogP calculated using Molinspiration Cheminformatics; settings: Table SI14
[3] = log P determination by 19F NMR shake-flask method with internal fluorinated reference (octanol/water)
[4] = internal validation, reference 13 (+1.20EXP)

Substance: 2-fluoroethanol
- logP (lit) ([1]; method and temperature not provided, ref U.S. National Library of Medicine online database (chemidplus)): -0.67
- logP (lit) ([1]; ref Hansch, Leo 1979 and Dillingham et al., J. Pharm. Sci. 1973 (shake-flask, gas chromatography)): -0.92
- ΔlogP (milogP vs logP exp) [2]: +0.73
- Average logP ([3]; 25 °C, reference TFE (+0.36)): -0.75
- Average logP [3, 4]: -0.76
- error (mean logP to three decimals) [3, 4]: -0.758
- logP ([3]; octanol/water, 19F NMR, 25 °C, average value): -0.75
- error (mean logP to three decimals) ([3]; reference TFE (+0.36)): -0.746
- logP ([3]; single experiment, internal validation, reference 13 (+1.20EXP)): -0.766 and -0.754
- logP ([3]; single experiment, reference TFE (+0.36)): -0.746 and -0.749 and -0.741
